Measured values from US20100184668A1 (EMORY UNIVERSITY, published 2010).

Key:
[1] = biological target: T1, thrombospondin-1 (TSP1), secreted into conditioned medium of LN229 clone C9 (UniProt P07996); experiment: GST pull-down from conditioned medium of LN229 clone C9, Western blot
T1 construct: Positive control in the GST pull-down
Protocol: (§1) FIG. 5C illustrates a GST pull-down assay. GST alone or the two recombinant GST-CD36 peptides were bound to glutathione sepharose beads and CM from LN229 glioma cells stably expressing Vstat120 (+lanes) or control cells (−lanes) were tested for protein interaction. A separate pull-down assay with CM from TSP1 expressing cells (LN229 clone C9) was used as a positive control. The bound proteins were eluted and analyzed for Vstat120 and TSP1 expression by western blot. Both the GST tagged CD36 containing recombinant peptides could pull down Vstat120 and TSP1 but not the purified GST. Positive control lanes are TCA precipitations of CM (collected serum-free after 96 hrs) that express either Vstat120 or TSP1.
(§2) The anti-angiogenic effects of TSP-1 and -2 mediated by their binding to CD36 on endothelial cells is dependent upon the binding of the TSR domain(s) to a conserved region within CD36 called the CLESH domain. The ability of Vstat120 to bind to recombinant CD36 CLESH domain peptides was tested. GST-tagged peptides spanning amino acids 5 to 143, and 67 to 157 of CD36 were expressed and purified in E. coli (FIGS. 5A and 5B). The indicated GST fusion proteins were tested for their ability to bind to TSP1. Briefly the indicated recombinant peptide bound to glutathione-sepharose beads was used to pull down TSP1 from CM of LN229 cells constitutively expressing TSP1 (clone C9). […]

[2] = biological target: T2, Vasculostatin 120 (Vstat120), myc/his-tagged, secreted into conditioned medium (human, UniProt O14514 33-926); experiment: GST pull-down from conditioned medium of LN229 cells expressing Vstat120, Western blot
T2 construct: Used as unpurified conditioned medium: LN229 clone 13 (pcDNA3.1mychisVstat120) for the pull-down, transfected 293 cells for the migration and cornea assays; also called 120 kDa fragment of BAI1; not shown: myc/his tag of the pcDNA3.1 expression vector
T2 sequence: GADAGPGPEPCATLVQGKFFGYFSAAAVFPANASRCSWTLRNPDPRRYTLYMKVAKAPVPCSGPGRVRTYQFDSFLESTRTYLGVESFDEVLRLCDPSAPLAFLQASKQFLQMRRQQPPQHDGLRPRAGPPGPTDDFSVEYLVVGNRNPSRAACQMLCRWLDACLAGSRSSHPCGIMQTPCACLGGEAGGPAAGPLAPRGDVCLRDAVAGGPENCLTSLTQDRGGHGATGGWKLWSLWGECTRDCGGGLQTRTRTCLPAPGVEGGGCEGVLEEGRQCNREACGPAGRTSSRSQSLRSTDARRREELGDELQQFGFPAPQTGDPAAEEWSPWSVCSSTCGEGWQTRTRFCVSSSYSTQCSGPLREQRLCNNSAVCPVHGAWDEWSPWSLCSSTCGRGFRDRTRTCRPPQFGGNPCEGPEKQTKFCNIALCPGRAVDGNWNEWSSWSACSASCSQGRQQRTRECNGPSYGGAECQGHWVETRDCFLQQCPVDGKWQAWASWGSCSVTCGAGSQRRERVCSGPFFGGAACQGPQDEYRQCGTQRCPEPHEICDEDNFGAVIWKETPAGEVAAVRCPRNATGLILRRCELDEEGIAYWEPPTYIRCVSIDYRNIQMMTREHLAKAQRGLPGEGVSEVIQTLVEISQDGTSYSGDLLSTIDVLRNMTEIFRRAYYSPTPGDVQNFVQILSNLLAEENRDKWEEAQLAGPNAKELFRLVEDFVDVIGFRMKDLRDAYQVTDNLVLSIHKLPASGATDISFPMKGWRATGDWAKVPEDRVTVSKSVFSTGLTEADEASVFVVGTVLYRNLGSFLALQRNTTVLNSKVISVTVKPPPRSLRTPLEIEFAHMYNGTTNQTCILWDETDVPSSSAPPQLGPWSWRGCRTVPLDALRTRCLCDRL
Protocol: as §1, §2

binding result [1]: no binding
binding result [2]: no binding
B1: purified GST (glutathione S-transferase alone) (other, UniProt P08515 1-218, looked up)
chain: MSPILGYWKIKGLVQPTRLLLEYLEEKYEEHLYERDEGDKWRNKKFELGLEFPNLPYYIDGDVKLTQSMAIIRYIADKHNMLGGCPKERAEISMLEGAVLDIRYGVSRIAYSKDFETLKVDFLSKLPEMLKMFEDRLCHKTYLNGDHVTHPDFMLYDALDVVLYMDPMCLDAFPKLVCFKKRIEAIPQIDKYLKSSKYIAWPLQGWQATFGGGDHPPK
notes: Negative control in the pull-down; also called GST alone
